Target: His-tagged TDG protein (Homo sapiens, UniProt Q13569)
Test: HTRF assay: inhibition of the binding of TDG to double-stranded DNA substrates
Conditions: read-out: Activity, IC50 class, TDG 40 nM, Biotin-labeled dsDNA substrate 40 nM, 4PL fit
Description: HTRF (Homogeneous Time-Resolved Fluorescence) technology was used to evaluate the inhibitory effects of the compounds on the binding of TDG to double-stranded DNA substrates.
Microplate reader (manufacturer: Perkin Elmer; model: Envision multilabel reader equipped with HTRF module) and Echo 550 (manufacturer: Labcyte; model: Echo 550).
• 1. Preparation of compound concentration gradient: Test compounds were prepared at a starting concentration of 250 µM, with 3-fold serial dilution, 10 concentrations, and duplicate wells. In a 384-well plate, the compounds were gradient-diluted to 40× final concentration solutions at 10 different concentrations. Then 500 nl was transferred to a 384-well reaction plate using Echo 550 for later use. To the negative control wells and positive control wells, 500 nl of 100% DMSO or Biotin-unlabeled dsDNA substrate was added, respectively. • 2. Add 1.5 µl/well of Epigeneous Binding Domain diluent buffer to the 384-well plate, and centrifuge at 1000 rpm for 1 min. • 3. Add 4 µl of 5× final concentration of His-tagged TDG protein (final concentration 40 nM, diluted with Epigeneous Binding Domain diluent buffer) to the 384-well plate, centrifuge at 1000 rpm for 1 min, and incubate at room temperature for 10 min. • 4. Add 4 µl of 5× final concentration of Biotin-labeled dsDNA substrate (final concentration 40 nM, diluted with Epigeneous Binding Domain diluent buffer) to the 384-well plate, centrifuge at 1000 rpm for 1 min, and incubate at room temperature for 30 min. • 5. Add 5 µl of 4× final concentration of Streptavidin-XL665 (final concentration 5 nM, diluted with Epigeneous Binding Domain Detection buffer) to the 384-well plate, and centrifuge at 1000 rpm for 1 min. • 6. Add 5 µl of 4× final concentration of MAb Anti-6HIS-Eu cryptate Gold (final concentration 0.1 µg/ml, diluted with Epigeneous Binding Domain Detection buffer) to the 384-well plate, and centrifuge at 1000 rpm for 1 min.
Incubate overnight at 4 °C, and read HTRF on the microplate reader.
• 1. Calculation of Ratio value for each well Ratio = Signal 665 nm / Signal 620 nm × 104. • 2. Calculation of delta Ratio value for each well delta Ratio = Ratio standard or sample - Ratio standard 0 (negative control). • 3. IC50 values were fitted using a four-parameter logistic (4PL) curve.

Sequences of proteins named here, by UniProt entry; tags and fusion partners are left off.
UniProt Q13569, whole entry: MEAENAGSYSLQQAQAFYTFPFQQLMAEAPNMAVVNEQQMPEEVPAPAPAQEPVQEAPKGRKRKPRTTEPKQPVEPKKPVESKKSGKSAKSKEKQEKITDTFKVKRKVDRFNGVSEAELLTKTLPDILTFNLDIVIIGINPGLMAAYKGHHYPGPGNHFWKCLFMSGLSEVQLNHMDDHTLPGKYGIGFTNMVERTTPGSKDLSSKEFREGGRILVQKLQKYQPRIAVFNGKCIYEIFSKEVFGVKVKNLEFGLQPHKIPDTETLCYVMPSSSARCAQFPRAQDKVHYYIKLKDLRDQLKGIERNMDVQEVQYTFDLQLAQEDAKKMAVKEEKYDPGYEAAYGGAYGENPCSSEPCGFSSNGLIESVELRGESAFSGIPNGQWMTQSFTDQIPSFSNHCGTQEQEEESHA

| IC50 | SMILES |
| --- | --- |
| 0.5 to 5 µM | COCc1c(O)c(C)cc(C2OC(=O)C3CC32)c1OC (stereo not drawn) |
| 5 to 50 µM | COc1cc(O)c(CCC(=O)N[C@H](CNC(=O)CC2CCCCC2)C(=O)NC2CCCCC2)cc1C1CCC(=O)O1 (stereo partly drawn) |
| 0.5 to 5 µM | C=Cc1cc(O)c(C)cc1C1OC(=O)C2CC21 (stereo not drawn) |
| 0.5 to 5 µM | O=C1CCC(c2c(-c3cnccc3-c3ccccc3)cc(O)c3ccccc23)O1 (stereo not drawn) |
| 5 to 50 µM | Cc1cc(C2OC(=O)C3CC32)c(-c2cncnc2)cc1O (stereo not drawn) |
| 0.5 to 5 µM | CCCc1c(O)ccc(C2OC(=O)C3CC32)c1OC (stereo not drawn) |
| < 0.5 µM | COc1cc(O)c(CCC(=O)O)cc1C1CCC(=O)O1 (stereo not drawn) |
| 0.5 to 5 µM | C=CC(=O)N1CCCCC1CC(=O)NCC(NC(=O)CCc1cc(C2CCC(=O)O2)c(OC)cc1O)C(=O)O (stereo not drawn) |
| 0.5 to 5 µM | COc1cc(O)c(C2CCCCC2)cc1C1OC(=O)C2CC21 (stereo not drawn) |
| < 0.5 µM | O=C1CCC(c2c(Br)cc(OC(=O)C3CCOCC3)c3ccccc23)O1 (stereo not drawn) |
| 5 to 50 µM | COc1cc2c(cc1C1CCC(=O)O1)CCC(=O)O2 (stereo not drawn) |
| 5 to 50 µM | COc1cc(OC(C)=O)ccc1C1CCC(=O)O1 (stereo not drawn) |
| 0.5 to 5 µM | O=C1OC(c2c(C3=CCOCC3)cc(O)c3ccccc23)C2CC12 (stereo not drawn) |
| < 0.5 µM | O=C1CCC(c2ccc(O)c3c2OCCO3)O1 (stereo not drawn) |
| 0.5 to 5 µM | Cn1ncc(-c2cc(O)c3ccccc3c2C2CCC(=O)O2)c1-c1ccccc1 (stereo not drawn) |
| 5 to 50 µM | Cc1cc(C2OC(=O)C3CC32)c(Br)cc1O (stereo not drawn) |
| 0.5 to 5 µM | C=CC(=O)N1CCN(Cc2cc(C3OC(=O)C4CC43)c(OC)cc2O)CC1 (stereo not drawn) |
| 0.5 to 5 µM | COC(=O)CCc1cc(C2CCC(=O)O2)c(OC)cc1O (stereo not drawn) |
| 0.5 to 5 µM | COCCN(C)c1cc(O)c(C)cc1C1CCC(=O)O1 (stereo not drawn) |
| 5 to 50 µM | O=C1CC2CCc3cc(O)cc(Br)c3C2O1 (stereo not drawn) |
| < 0.5 µM | NS(=O)(=O)Oc1cc(Br)c(C2OC(=O)C3CC32)c2ccccc12 (stereo not drawn) |
| 0.5 to 5 µM | Cc1cc(C2OC(=O)C3CC32)c(OC2CCOCC2)cc1O (stereo not drawn) |
| 5 to 50 µM | Cc1cc(C2OC(=O)C3CC32)c(-c2ccccc2)cc1O (stereo not drawn) |
| > 50 µM | COc1cc(OC(C)=O)c(CCC(=O)N(C)C)cc1C1CCC(=O)O1 (stereo not drawn) |

| IC50 | SMILES |
| --- | --- |
| < 0.5 µM | COc1cc(S)ccc1C1CCC(=O)O1 (stereo not drawn) |
| 0.5 to 5 µM | Cc1cc(C2OC(=O)C3CC32)c(OCC(F)(F)F)cc1O (stereo not drawn) |
| < 0.5 µM | COc1c(C2OC(=O)C3CC32)cc(C)c(O)c1C (stereo not drawn) |
| < 0.5 µM | O=C1CCC(c2c(Br)cc(O)c3ccccc23)O1 (stereo not drawn) |
| 0.5 to 5 µM | CC(=O)Oc1cc(-c2cnn(C)c2)c(C2CCC(=O)O2)c2ccccc12 (stereo not drawn) |
| 5 to 50 µM | COc1cc(OC(C)=O)ccc1C1OC(=O)C2CC21 (stereo not drawn) |
| 0.5 to 5 µM | COc1cc(O)c(CCC(=O)NC[C@@H](NC(=O)CC2CCCCC2)C(=O)NCCOCCOCCC(=O)O)cc1C1CCC(=O)O1 (stereo partly drawn) |
| < 0.5 µM | CC(=O)Oc1cc(Br)c(C2OC(=O)C3CC32)c2ccccc12 (stereo not drawn) |
| 5 to 50 µM | CS(=O)(=O)c1cc(O)c2ccccc2c1C1CCC(=O)O1 (stereo not drawn) |
| < 0.5 µM | COc1cc(O)c(CCC(=O)N[C@H](CNC(=O)CC2CCCCC2)C(=O)NCCOCCOCCC(=O)O)cc1C1CCC(=O)O1 (stereo partly drawn) |
| 5 to 50 µM | COc1cc(O)c(CCC(=O)O)cc1C1CC(C)(C)C(=O)O1 (stereo not drawn) |
| 0.5 to 5 µM | COc1cc(O)c(CCC(=O)OC(C)C)cc1C1CCC(=O)O1 (stereo not drawn) |
| < 0.5 µM | CC(=O)Oc1cc(-c2cnc3ccccc3c2)c(C2CCC(=O)O2)c2ccccc12 (stereo not drawn) |
| 5 to 50 µM | C#Cc1cc(O)c(C)cc1C1OC(=O)C2CC21 (stereo not drawn) |
| 5 to 50 µM | COC(=O)OCOc1cc(Br)c(C2OC(=O)C3CC32)c2ccccc12 (stereo not drawn) |
| 0.5 to 5 µM | COc1cc(O)ccc1C1CC(c2ccccc2)C(=O)O1 (stereo not drawn) |
| < 0.5 µM | O=C1CCC(c2c(Cl)cc(O)c3ccccc23)O1 (stereo not drawn) |
| < 0.5 µM | O=C1CCC(c2c(-c3cnc4ccccc4c3)cc(O)c3ccccc23)O1 (stereo not drawn) |
| < 0.5 µM | COc1cc(C2OC(=O)C3CC32)c(OC)cc1O (stereo not drawn) |
| > 50 µM | Cc1cc(C2OC(=O)C3CC32)c(S(C)(=O)=O)cc1O (stereo not drawn) |
| 0.5 to 5 µM | Cc1cc(C2OC(=O)C3CC32)c(F)cc1O (stereo not drawn) |
| 0.5 to 5 µM | O=C1CCC(c2c(-c3cccc4c3ccn4C3CCOCC3)cc(O)c3ccccc23)O1 (stereo not drawn) |
| 0.5 to 5 µM | CC(=O)Oc1cc(Br)c(C2CCC(=O)O2)c2ccccc12 (single isomer, unassigned) |
| 0.5 to 5 µM | O=C1CCC(c2c(Br)cc(OC(=O)c3ccccc3)c3ccccc23)O1 (stereo not drawn) |

| IC50 | SMILES |
| --- | --- |
| 0.5 to 5 µM | COc1cc(O)c(CCC(=O)NC[C@@H](NC(=O)CC2CCCCC2)C(=O)O)cc1C1CCC(=O)O1 (stereo partly drawn) |
| 5 to 50 µM | COc1cc(O)c(C)cc1C1OC(=O)C2C1C2(C)C (stereo not drawn) |
| 0.5 to 5 µM | COc1cc(O)c(-c2ccccc2)cc1C1CCC(=O)O1 (stereo not drawn) |
| < 0.5 µM | CN(C)c1cc(O)cc(Cl)c1C1OC(=O)C2CC21 (stereo not drawn) |
| 5 to 50 µM | Cc1cc(C2OC(=O)C3CC32)c(-c2cnn(C)c2)cc1O (stereo not drawn) |
| 5 to 50 µM | Cc1cc(C2OC(=O)C3CC32)c(Cl)cc1O (stereo not drawn) |
| 5 to 50 µM | COc1cc(O)cc(Br)c1C1CCC(=O)O1 (stereo not drawn) |
| 0.5 to 5 µM | CCOC(=O)CCc1cc(C2CCC(=O)O2)c(OC)cc1O (stereo not drawn) |
| 0.5 to 5 µM | COc1cc(O)c(CCC(=O)N(C)C)cc1C1CCC(=O)O1 (stereo not drawn) |
| 5 to 50 µM | COc1cc(O)c(Br)cc1C1CCC(=O)O1 (stereo not drawn) |
| 0.5 to 5 µM | O=C1CCC(c2c(C(F)(F)F)cc(O)c3ccccc23)O1 (stereo not drawn) |
| 0.5 to 5 µM | O=C1CCC(c2ccc(O)c3cccnc23)O1 (stereo not drawn) |
| 0.5 to 5 µM | O=C1CCC(c2c(Br)cc(OC(=O)c3ccccc3[N+](=O)[O-])c3ccccc23)O1 (stereo not drawn) |
| 0.5 to 5 µM | Cc1cc(C2OC(=O)C3CC32)c(N(C)CCN(C)C(=O)OC(C)(C)C)cc1O (stereo not drawn) |
| 0.5 to 5 µM | Cc1cc(C2OC(=O)C3CC32)c(/C=C/c2ccccc2)cc1O (stereo not drawn) |
| < 0.5 µM | Nc1ccccc1C(=O)Oc1cc(Br)c(C2CCC(=O)O2)c2ccccc12 (stereo not drawn) |
| 0.5 to 5 µM | COc1cc(O)c(C2CC2)cc1C1OC(=O)C2CC21 (stereo not drawn) |
| 0.5 to 5 µM | COc1cc(O)c(C)c(C)c1C1OC(=O)C2CC21 (stereo not drawn) |
| > 50 µM | COc1cc(O)c(C#N)cc1C1CCC(=O)O1 (stereo not drawn) |
| > 50 µM | Cc1cc(C2OC(=O)C3CC32)c(C#C[Si](C(C)C)(C(C)C)C(C)C)cc1O (stereo not drawn) |
| < 0.5 µM | O=C1CCC(c2c(Br)cc(OC(=O)[C@@H]3CCCN3)c3ccccc23)O1 (stereo partly drawn) |
| 0.5 to 5 µM | CCOc1cc(O)c(C)cc1C1OC(=O)C2CC21 (stereo not drawn) |
| 0.5 to 5 µM | COC(=O)Oc1cc(Br)c(C2CCC(=O)O2)c2ccccc12 (stereo not drawn) |
| < 0.5 µM | COc1cc(O)c(CCC(=O)O)cc1C1OC(=O)C2CC21 (stereo not drawn) |

| IC50 | SMILES |
| --- | --- |
| < 0.5 µM | O=C1CCC(c2c(Br)cc(O)c3cccnc23)O1 (stereo not drawn) |
| 0.5 to 5 µM | N#Cc1cc(O)c2ccccc2c1C1CCC(=O)O1 (stereo not drawn) |
| 5 to 50 µM | O=C1CCC(c2c(-c3cnn(-c4ccccc4)c3-c3ccccc3)cc(O)c3ccccc23)O1 (stereo not drawn) |
| 0.5 to 5 µM | COc1cc(O)ccc1C1OC(=O)C2CC21 (stereo not drawn) |
| < 0.5 µM | COc1cc(O)c(C)cc1C1CCC(=O)O1 (stereo not drawn) |
| 5 to 50 µM | COc1cc(O)cc(Oc2ccccc2)c1C1CCC(=O)O1 (stereo not drawn) |
| < 0.5 µM | CCCc1cc(C2OC(=O)C3CC32)c(OC)cc1O (stereo not drawn) |
| < 0.5 µM | CC(=O)Oc1cc(Cl)c(C2OC(=O)C3CC32)c2ccccc12 (stereo not drawn) |
| 0.5 to 5 µM | COc1cc(O)c(CCC(=O)N[C@H](CNC(=O)CC2CCCCC2)C(=O)O)cc1C1CCC(=O)O1 (stereo partly drawn) |
| 0.5 to 5 µM | Cn1cc(-c2cc(O)c3ccccc3c2C2OC(=O)C3CC32)cn1 (stereo not drawn) |
| > 50 µM | COc1cc(OC)c(Cl)c(C(=O)Oc2cc(Br)c(C3CCC(=O)O3)c3ccccc23)c1Cl (stereo not drawn) |
| 0.5 to 5 µM | COC(=O)CCc1cc(C2OC(=O)C3CC32)c(OC)cc1O (stereo not drawn) |
| 0.5 to 5 µM | Cn1cc(-c2cc(O)c3cccnc3c2C2CCC(=O)O2)cn1 (stereo not drawn) |
| < 0.5 µM | Cc1cc(C2OC(=O)C3CC32)c(N(C)C)cc1O (stereo not drawn) |
| 0.5 to 5 µM | COc1c(C2OC(=O)C3CC32)cc(C)c(O)c1OC (stereo not drawn) |
| < 0.5 µM | COc1cc(O)c(CCC(=O)N[C@@H](CNC(=O)CC2CCCCC2)C(=O)NCCOCCOCCC(=O)O)cc1C1CCC(=O)O1 (stereo partly drawn) |
| 5 to 50 µM | COc1cc(O)c(C(C)(C)C)cc1C1OC(=O)C2CC21 (stereo not drawn) |
| 0.5 to 5 µM | CCN(CC)c1cc(O)c(C)cc1C1OC(=O)C2CC21 (stereo not drawn) |
| < 0.5 µM | Cn1cc(-c2cc(O)c3ccccc3c2C2CCC(=O)O2)cn1 (stereo not drawn) |
| < 0.5 µM | O=C1CCC(c2c(Br)cc(OC(=O)c3ccc(C(F)(F)F)cc3)c3ccccc23)O1 (stereo not drawn) |
| 0.5 to 5 µM | O=C1CCC(c2c(-c3cccnc3)cc(O)c3ccccc23)O1 (stereo not drawn) |
| 0.5 to 5 µM | CCc1cc(O)c(C)cc1C1OC(=O)C2CC21 (stereo not drawn) |
| 0.5 to 5 µM | COc1cc(O)c(CCC(=O)NC[C@H](NC(=O)CC2CCCCC2)C(=O)NCCOCCOCCC(=O)O)cc1C1CCC(=O)O1 (stereo partly drawn) |

| SMILES | IC50 |
| --- | --- |
| Cc1cc(C2OC(=O)C3CC32)c(N2CCN(C)CC2)cc1O (stereo not drawn) | 5 to 50 µM |
